The target in the experiment is HRV3C (Human rhinovirus 14, UniProt P03303). Nature of the experiment: HRV3C protease assay (duplex, SAMDI-MS). Format: biochemical. The note with it: HRV IC50, HRV3C, 30 mins preincubation, bound. The procedure:
Protease assays were performed in 384-well low volume polypropylene microtiter plates at ambient temperature. For the duplex assay, 3CLpro and HRV3C was added using a Multidrop Combi (Thermo Scientific; Waltham, MA) and preincubated for 30 mins with small molecules. The reactions were initiated by the addition of the two peptide substrates. The reactions were incubated for 30 mins and quenched by the addition of 0.5% formic acid (final) with subsequent neutralization using 1% sodium bicarbonate (final). Internal standard peptides were added in 20 mM Hepes pH 8.0 for quantitation of the protease products. […] SAMDI-MS was performed using reflector-positive mode on an AB Sciex TOF-TOF 5800 System (AB Sciex, Framingham, MA) with 400 shots/spot analyzed in a random raster sampling. For data analysis, area under the curves (peaks) (AUCs) for the product and internal standard were calculated using the TOF/TOF Series Explorer (AB Sciex), and the amount of product formed was calculated using the equation (AUC product/AUC internal standard). The amount of product generated was calculated using the ratio of product area under the curve (AUC) divided by the AUC of the internal standard. […] Assay robustness was determined by Z-Factor. The IC50s were determined by fitting the curves using a four-parameter equation in Graphpad Prism 8.

By UniProt entry, the sequences of proteins in these tests, tags left out. Residues count along the entry.
UniProt P03303, 1538-1719: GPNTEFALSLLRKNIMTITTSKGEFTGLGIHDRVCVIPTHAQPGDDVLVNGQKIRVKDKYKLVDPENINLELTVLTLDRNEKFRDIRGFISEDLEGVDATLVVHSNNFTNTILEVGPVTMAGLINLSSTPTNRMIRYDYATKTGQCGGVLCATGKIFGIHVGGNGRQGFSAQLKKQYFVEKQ

Drawing on patent US11952365B2, “Anti-viral compounds” (Aligos Therapeutics, Inc., priority 2020, dated 2024), this text covers IC50 for one compound.

Broadly, the IC50 is the concentration needed to halve the response being measured. Low values mean greater potency in that assay, high ones weaker potency in that assay.

Turning to `CS(=O)(=O)c1cccc2[nH]c(C(=O)N3C[C@@H]4CCC[C@@H]4[C@H]3C(=O)N[C@@H](C[C@@H]3CCNC3=O)C(=O)CO)cc12` [Compound 150, (1S,3aR,6aS)—N-[(2S)-4-hydroxy-3-oxo-1-[(3S)-2-oxopyrrolidin-3-yl]butan-2-yl]-2-(4-methanesulfonyl-1H-indole-2-carbonyl)-hexahydro-1H-cyclopenta[c]pyrrole-1-carboxamide], the IC50 was above 10 µM.
